Source: PubChem BioAssay (Broad Institute)
A selection: hits, their analogues and other compounds. The true share with any hit is near 1.2%.
Statin myotox sup: suppressors of simvastatin-induced myotoxicity in C2C12 myotubes; rescue of ATP level, % at 7.49 µM; ATP luminescence, 48 h; scaled: DMSO 0, geranylgeraniol control 100; hit rate 0.78% among 330,000;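 active = mean ATP rescue above about 67%, or every replicate alone reaching that limit, limit read from the data, passing the limit was not always enough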;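 also: myotubes were challenged with 10 µM simvastatin during compound exposure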
Cneo AK release: causes C. neoformans cell lysis | hit rate 0.2% among 360,000 | adenylate kinase release luminescence, 4 h; normalised: neutral wells 0, clomiphene wells 100 | AID 651654 | lysis activity, % at 15 µM;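 active = mean lysis activity across replicates of at least 80%, whatever share of replicates individually reach that level; inactive = mean lysis activity below 80%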
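Material: C. neoformans cells; Schedule: 4 h static compound exposure, 37 °C, read 1 h post-reagent; Measured by: adenylate kinase release luminescence; Read-out: signal increase indicating cell lysis; Controls: Clomiphene as positive lysis control.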
miR122 inh: miR-122 inhibition in Huh7 cells. Huh7 miR-122 Renilla luciferase sensor, 48 h; neutral wells = 0, positive control = 100. activation (reporter increase), % at 12.5 µM. hit rate 0.3% among 340,000. AID 602342;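 active = mean replicate activation score at least 90 and every replicate individually at or above 90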;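 also: higher luciferase means less miR-122 activity so hits act as miR-122 inhibitors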
Yeast UUG start-1: alters start codon recognition fidelity in yeast; AID 602363; activity score, % at 18.7 µM; 350,000 tested, 0.13% active; S. cerevisiae UUG-firefly luciferase reporter, luminescence/redox ratio;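 active means replicate mean at a twofold rise or more, about +100% in these data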;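 further: firefly luciferase made from a UUG start codon reports start codon fidelity; reporter light over untreated wells divided by growth signal over untreated wells; some hits fall short of that in this replicate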
Yeast UUG start-2: alters UUG start codon use in yeast; shares compounds with Yeast UUG start-1; S. cerevisiae UUG-start firefly luciferase, luminescence, 4 h; 100% means double the DMSO signal; activation, % at 38 µM; 540 tested, under 10 active; AID 652061;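 active = signal increase whose fitted curve reaches an absolute level of 40 at a concentration under 10 µM; inactive = activity opposite to the expected increase, or the rest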
* marks the source's active call; other numbers are inactive results; · = no result; [ ] = another dose, or the depositor's remark.

SMILES	Statin myotox sup	Cneo AK release	miR122 inh	Yeast UUG start-1	others
Cc1cc(C)c(NC2=NCCCS2)c(C)c1	81.7*	3.5	2.9	-3.3
Cc1cccc(C)c1NC1=NCCCS1	3.0	1.9	-5.2	-14.1
CCCC(=O)c1c(O)[nH]c(=O)[nH]c1=O	96.9*	-2.3	-8.2	-6.0
C=CCn1c(O)c(C(=O)CCCCCC)c(=O)[nH]c1=O	6.4	·	-7.7	·
CN(c1ccc(O)cc1)c1ccc([N+](=O)[O-])c2nonc12	116.9*	1.9	-6.4	37.7
O=[N+]([O-])c1ccc(N2CCCCCC2)c2nonc12	0.2	-0.1	·	6.9
Cn1cc(CCC(=O)N2CCC3(CC2)OCCO3)c2ccccc21	111.7*	0.6	-3.5	-10.7
O=C1Nc2ccccc2/C1=C/c1cnc[nH]1	198.6*	·	8.4	·
COC(=O)C[C@H]1CC[C@@H]2NC[C@H](O)COC[C@H]2O1	0.3	-0.5	2.6[16.7 µM]	·
C[C@H]1C[C@@H](C)C(=O)[C@@H]([C@H](O)CC2CC(=O)NC(=O)C2)C1	170.8*	12.7	-19.6	-3.1
O=C(NC1(C(F)(F)F)Oc2ccccc2O1)N1CCC2(CC1)OCCO2	101.4*	-0.4	2.9	-9.3
CCC(=O)N1[C@@H]2Cn3c(ccc(-c4ccc(F)cc4)c3=O)[C@H]1[C@@H](C(=O)OC)[C@@H]2CO	-18.4	1.0	·	·
COC(=O)C1=C(c2ccc(OC)c(OC)c2)C[C@@H]2CC[C@H]1N2C(=O)NCCOc1ccc(OC)cc1	121.0*	-0.2	0.6	5.3
COC(=O)[C@H]1C[C@@H]1[C@H](NP(=O)(c1ccccc1)c1ccccc1)c1ccccc1	110.7*	-0.3	3.6	-14.7
N=c1n(CCO)c2ccccc2n1Cc1ccccc1	85.8*	-5.1	-7.5	-11.2
CC(C)CC#Cc1ccc([C@@H]2[C@H]3CN(C(=O)Cc4ccccn4)CCCCN3[C@H]2CO)cc1	-12.6	0.3	-1.4[16.7 µM]	8.6
CN1CCN(C(=O)CN=[N+]=[N-])CC1	·	-4.4	·	·
C=CCOC(=O)C1=C(C)OC(N)=C(C(=O)OCC)C12C(=O)N(CC(N)=O)c1ccccc12 (configuration not stated)	3.2	0.9	-3.1	2.9
CCOC(=O)C1=C(C)OC(N)=C(C(=O)OCC)[C@@]12C(=O)N(CC(N)=O)c1ccccc12	98.5*	7.6	1.2	1.1
CC(=O)c1c(C)n(CCCOC(C)C)c2ccc(O)cc12	25.3	·	-0.7	·
C=COCCn1c(C)c(C(C)=O)c2cc(O)ccc21	113.4*	-0.1	-2.7	-19.0
CC[C@H]1C=C(C(=O)N[C@@]2(C(=O)O)C[C@H]2CC)[C@H]2CCC(=O)[C@H]2C1	·	8.8	·	·
CC=Cc1ccc2n(c1=O)C[C@@H]1[C@@H](CO)[C@H](C(=O)OC)[C@H]2N1CC1CCCCC1 (mixture of isomers)	-2.4	2.9	-2.7[16.7 µM]	·
O=c1[nH]c(CN2CC=C(c3ccccc3)CC2)nc2cc(C(F)(F)F)ccc12	-0.7	87.7*	2.0	-19.4
CCOc1ccc(C(C)=O)cc1Cc1c(O)[nH]c(=S)[nH]c1=O	4.9	-0.1	-2.2	-29.8
(continued)
SMILES	Statin myotox sup	Cneo AK release	miR122 inh	Yeast UUG start-1	others
COc1ccc(C(C)=O)cc1Cc1c(O)[nH]c(=S)[nH]c1=O	103.3*	0.7	0.3	-1.6
COc1ccc(C[C@H]2NC[C@H](O)[C@H]2OC(C)=O)cc1	78.5*	-6.0	-12.9	-18.4
Oc1ccc(/C=N/NP(=S)(c2ccccc2)c2ccccc2)cc1	1.1	-0.8	96.0*	-38.1
COc1cc(/C=N/NP(=S)(c2ccccc2)c2ccccc2)ccc1O	-0.6	-5.4	0.2	89.6
COC(=O)[C@@H]1[C@@H](CO)[C@@H]2Cn3c(ccc(-c4ccccc4F)c3=O)[C@H]1N2Cc1ccccc1	7.3	-4.7	-3.7[16.7 µM]	·
CC1(C)C2([N+](=O)[O-])CN3CC1([N+](=O)[O-])CN(C2)C3c1cccnc1 (configuration not stated)	-0.1	·	0.4	·
CCC12CN3CC(CC)(CN(C1)C3c1cccnc1)C2=O (configuration not stated)	137.3*	-0.3	-1.0	-1.2
CC12CN3CC(C)(CN(C1)C3c1cccnc1)C2=O (configuration not stated)	122.8*	-3.1	2.8	-20.6
CCCN1[C@@H]2c3ccc(-c4cccc(C(=O)N(C)C)c4)c(=O)n3C[C@H]1[C@H](CO)[C@H]2C(=O)OC	-19.7	63.5	·	·
N#Cc1cccc(-c2ccc([C@@H]3[C@H]4CN(C(=O)Cc5cccnc5)CCCCN4[C@H]3CO)cc2)c1	-86.9	0.1	-1.4[16.7 µM]	-11.4
COC(=O)[C@H]1[C@H](CO)[C@H]2Cn3c(ccc(-c4ccccc4OC)c3=O)[C@@H]1N2Cc1ccccc1	-3.7	-0.9	·	·
CCN(CC)C(=O)c1ccc2c(c1)C1C=CCC1C(C(=O)O)N2 (configuration not stated)	124.8*	-0.9	-5.0	3.8
COc1ccc(-c2nc3ccc(C(=O)N4CCC5(CC4)OCCO5)cc3nc2-c2ccc(OC)cc2)cc1	13.8	-2.1	80.9	29.1
COc1ccc(S(=O)(=O)Cc2ccc(C(=O)N3CCC4(CC3)OCCO4)o2)cc1	112.5*	2.7	1.5	-0.5
C=CCn1c(O)c(C(C)=NCCO)c(=O)[nH]c1=O	8.6	-0.5	-5.1	3.5
C=CCn1c(O)c(C(C)=NCCCO)c(=O)[nH]c1=O	108.4*	2.3	-0.8	-4.0
O=c1c2ccccc2nc(/C=C/c2ccc([N+](=O)[O-])o2)n1-c1ccc(O)cc1	·	·	95.4*	·
COc1ccc(C2=NCc3nnc(C)n3-c3ccc(Cl)cc32)cc1Cl	98.1*	2.7	-5.5	-7.3
O=C(Cc1ccccc1)N1CCCCN2[C@H](CO)[C@@H](c3ccc(-c4ccccc4)cc3)[C@H]2C1	·	1.9	-4.2[16.7 µM]	14.5
C/C=C/c1ccc([C@@H]2[C@H](CO)N3CCCCN(C(=O)Cc4ccncc4)C[C@@H]23)cc1	0.0	-0.8	7.8[16.7 µM]	-3.1
CC#CP(=O)(OC)C(O)(CF)c1ccccc1 (configuration not stated)	104.8*	-2.1	-2.2	-9.9
C[C@]12CC[C@H]3[C@@H](CC[C@]4(O)C[C@@H](O)CC[C@]34C=O)[C@@]1(O)CC[C@@H]2C1=CC(=O)OC1	1.3	-1.5	1.0	-3.0
CC12CCC3C(CCC4(O)CC(O)CCC34C=O)C1(O)CCC2C1=CC(=O)OC1 (configuration not stated)	-6.9	·	96.1*	·
Cc1cccc(S(=O)(=O)N2[C@@H]3Cn4c(ccc(-c5ccccc5)c4=O)[C@H]2[C@@H](C(=O)O)[C@@H]3CO)c1	3.7	-9.8	-0.8[16.7 µM]	·
CN1CCC(N(C)c2nc(-c3ccc([N+](=O)[O-])cc3)nc3ccccc23)CC1	·	·	-25.1	·
Later entries
SMILES	Statin myotox sup	Cneo AK release	miR122 inh	Yeast UUG start-1	others
CN(CC1COc2ccccc2O1)c1nc(-c2cccnc2)nc2ccccc12 (configuration not stated)	107.7*	12.6	14.8	-10.1
O=C(Cc1cccnc1)N1CCCCN2[C@H](CO)[C@H](c3ccc(/C=C/c4ccccc4)cc3)[C@@H]2C1	·	-0.8	-2.1[16.7 µM]	-13.7
O=C(Nc1ccccc1Cl)OC1CN2CCC1CC2 (configuration not stated)	1.9	·	·	·
O=C(Nc1ccccc1F)OC1CN2CCC1CC2 (configuration not stated)	·	-2.1	1.3	165.2*	Yeast UUG start-2=1.8
COC(=O)[C@@H]1[C@@H](CO)[C@@H]2Cn3c(ccc(-c4ccc(F)cc4)c3=O)[C@H]1N2Cc1cccnc1	-5.6	-2.0	·	·
CCCCOC(=O)C1=C(N)OC2=C(C(=O)CCC2)[C@]12C(=O)Nc1ccccc12	7.8	-3.4	6.0	125.3*	Yeast UUG start-2=-0.5

Gathered by group, the compounds so far containing a COOH group.
SMILES	Statin myotox sup	Cneo AK release	miR122 inh	Yeast UUG start-1	others
CC[C@H]1C=C(C(=O)N[C@@]2(C(=O)O)C[C@H]2CC)[C@H]2CCC(=O)[C@H]2C1	·	8.8	·	·
CCN(CC)C(=O)c1ccc2c(c1)C1C=CCC1C(C(=O)O)N2 (configuration not stated)	124.8*	-0.9	-5.0	3.8
Cc1cccc(S(=O)(=O)N2[C@@H]3Cn4c(ccc(-c5ccccc5)c4=O)[C@H]2[C@@H](C(=O)O)[C@@H]3CO)c1	3.7	-9.8	-0.8[16.7 µM]	·

A portion from the list above:
SMILES	Statin myotox sup	Cneo AK release	miR122 inh	Yeast UUG start-1	others
CN(CC1COc2ccccc2O1)c1nc(-c2cccnc2)nc2ccccc12 (configuration not stated)	107.7*	12.6	14.8	-10.1
O=C(Cc1cccnc1)N1CCCCN2[C@H](CO)[C@H](c3ccc(/C=C/c4ccccc4)cc3)[C@@H]2C1	·	-0.8	-2.1[16.7 µM]	-13.7
O=C(Nc1ccccc1Cl)OC1CN2CCC1CC2 (configuration not stated)	1.9	·	·	·
